Conditions in all cases: remark: other sources report otherwise
In one experiment the target is HLA-A*0101 (human). In words: competition vs 125I probe peptide, purified HLA.
The target in another experiment is HLA-B*5101 (human). In words: competition vs 125I probe peptide, purified HLA.
A further experiment concerns the target HLA-B*5301 (human). In words: competition vs 125I probe peptide, purified HLA.
In the next experiment the target is HLA-B*3501 (human). In words: competition vs 125I probe peptide, purified HLA.
Experiment [1] deals with HLA-B*4402 (human). In words: competitive inhibition of labeled reference peptide binding to purified HLA.
Experiment [2] addresses HLA-B*4002 (human). Described as above.
Experiment [3] addresses HLA-B*4402 (human). As to the kind of experiment: competitive inhibition of labelled peptide binding to purified HLA.
Experiment [4] deals with HLA-B*1801 (human). Described as above.
The target in experiment [5] is HLA-B*4402 (human). As to the kind of experiment: competition binding assay, purified HLA class I.
In experiment [6] the target is HLA-B*4501 (human). As to the kind of experiment: competition binding assay, purified HLA class I.
For experiment [7], the target named is HLA-B*4001 (human). As to the kind of experiment: competition binding assay, purified HLA class I.
Experiment [8] concerns the target HLA-B*4002 (human). As to the kind of experiment: competition binding assay, purified HLA class I.
Experiment [9] concerns the target HLA-B*4403 (human). In words: competition binding assay, purified HLA class I.
Experiment [10] concerns the target HLA-B*1801 (human). In words: competition binding assay, purified HLA class I.
Experiment [11] has as its target HLA-B*4501 (human). In words: competitive inhibition of labelled peptide binding to purified HLA.
In experiment [12] the target is HLA-B*4002 (human). The description is as above.
A further experiment has as its target HLA-A*3301 (human). As to the kind of experiment: inhibition of 125I-HBV 141.Y7 binding to purified HLA.
The target of experiment [13] is HLA-B*4001 (human). As to the kind of experiment: competitive inhibition of labeled reference peptide binding to purified HLA.
Experiment [14] deals with HLA-B*4403 (human). Described as above.
Experiment [15] concerns the target HLA-B*4501 (human). The experiment is described as above.
In experiment [16] the target is HLA-B*4001 (human). In words: competitive inhibition of labelled peptide binding to purified HLA.
In experiment [17] the target is HLA-B*1801 (human). As to the kind of experiment: competitive inhibition of labeled reference peptide binding to purified HLA.
In another experiment the target is HLA-B*0702 (human). In words: competition vs 125I probe peptide, purified HLA.

These results are taken from patent publication EP1903056A2.

Regarding ITEKNSGLY [CEA.467], the IC50 in the experiment with HLA-A*0101 (human) turned out to be 641 nM.

For the molecule SPAFDNLYI [Her2/neu.1214 (…)], the IC50 came to 229 nM with HLA-B*5101 (human) and 155 nM with HLA-B*5301 (human).

For the molecule APAPAPSW [p53.84], in the experiment with HLA-B*3501 (human), the IC50 was found to be 3270 nM.

As to LEDSSGNLL [… (p53, position 257, 9-mer)], the concentration for half-maximal inhibition (IC50) in the experiment with HLA-B*4402 (human) [1] stood at 1860 nM; with HLA-B*4002 (human) [2], 2770 nM.

Regarding FEDNYALAVL [Her2/neu position 108, 10-mer], the half-maximal inhibitory concentration (IC50) in the experiment with HLA-B*4402 (human) [3] stood at 2840 nM; in the experiment with HLA-B*1801 (human) [4] it was 321 nM.

On to IPWQRLLLTI [CEA.13I10], for which the IC50 with HLA-B*5301 (human) was determined as 291 nM.

With EEEGPSTFPDL [BBBGPSTFPDL (MAGE3 position 91, 11-mer)], the IC50 with HLA-B*4402 (human) [5] was determined as 2680 nM; with HLA-B*4501 (human) [6], 158 nM; with HLA-B*4001 (human) [7], 431 nM; with HLA-B*4002 (human) [8], 2120 nM; in the experiment with HLA-B*4403 (human) [9], 102 nM; in the experiment with HLA-B*1801 (human) [10], 935 nM.

Consider GSVVGNWQY [MAGE3.137], for which the IC50 with HLA-A*0101 (human) amounted to 4240 nM.

As to RELGSGLAL [Her2/neu position 459, 9-mer], the IC50 in the experiment with HLA-B*4402 (human) [3] turned out to be 473 nM; with HLA-B*4501 (human) [11] it was 2260 nM; with HLA-B*1801 (human) [4], 359 nM.

IELMEVDPIG [… (MAGE3 position 164, 10-mer)]: the concentration for half-maximal inhibition (IC50) with HLA-B*4001 (human) [7] is 6590 nM; in the experiment with HLA-B*1801 (human) [10], 506 nM.

As to GEPHISY [GEPHISY (MAGE2 position 295, 7-mer)], the IC50 with HLA-B*4002 (human) [8] came out at 6720 nM; in the experiment with HLA-B*4403 (human) [9], 272 nM; with HLA-B*1801 (human) [10], 8830 nM.

HSASNPSPQY [CEA.616]: the half-maximal inhibitory concentration (IC50) in the experiment with HLA-A*0101 (human) came out at 74 nM.

For FEGREDSI [FEGREDSI (MAGE3 position 231, 8-mer)], the IC50 in the experiment with HLA-B*4402 (human) [5] was 14200 nM; in the experiment with HLA-B*4001 (human) [7] it was 718 nM; with HLA-B*1801 (human) [10] it was 5760 nM.

As to VEECRVLQGL [Her2/neu position 541, 10-mer], the IC50 with HLA-B*4501 (human) [11] is 16100 nM; in the experiment with HLA-B*4002 (human) [12] it was 5820 nM.

REGDCAPEEKI [… (MAGE3 position 211, 11-mer)]: the figures for the IC50 with HLA-B*4402 (human) [5], in the experiment with HLA-B*4501 (human) [6] and with HLA-B*1801 (human) [10] were 4040 nM, 146 nM and 973 nM, respectively.

In the case of IPWQRLLLTA [CEA.13], the IC50 in the experiment with HLA-B*5101 (human) is 2120 nM; in the experiment with HLA-B*5301 (human) it was 2660 nM.

Consider PEEKIWEEL [… (MAGE2 position 217, 9-mer)], for which the 50% inhibitory concentration (IC50) with HLA-B*4402 (human) [5] was 2890 nM; in the experiment with HLA-B*4501 (human) [6], 17300 nM; with HLA-B*4001 (human) [7], 19400 nM; in the experiment with HLA-B*4002 (human) [8], 3910 nM; in the experiment with HLA-B*1801 (human) [10], 577 nM.

RTLTLFNVTR [CEA.554]: in the experiment with HLA-A*3301 (human), the IC50 is 1610 nM.

As to NEALELKDA [… (p53, position 345, 9-mer)], the IC50 in the experiment with HLA-B*4402 (human) [1] turned out to be 4270 nM; with HLA-B*4001 (human) [13], 3890 nM; with HLA-B*4002 (human) [2], 6640 nM; with HLA-B*4403 (human) [14], 1580 nM.

Take FEVRVCACPG [… (p53, position 270, 10-mer)]: the IC50 in the experiment with HLA-B*4501 (human) [15] amounted to 1870 nM; with HLA-B*4001 (human) [13], 2040 nM.

Turning to KEILDEAYV [Her2/neu position 765, 9-mer], the IC50 worked out at 6470 nM in the experiment with HLA-B*4402 (human) [3] and 1360 nM in the experiment with HLA-B*1801 (human) [4].

Turning to QEAASSSST [… (MAGE3 position 36, 9-mer)], the IC50 with HLA-B*4402 (human) [5] came out at 3820 nM; with HLA-B*4002 (human) [8], 1480 nM; with HLA-B*1801 (human) [10] it was 1420 nM.

Consider QEEEGPSTF [… (MAGE3 position 90, 9-mer)], for which the IC50 with HLA-B*4402 (human) [5] is 324 nM; with HLA-B*4002 (human) [8] it was 16100 nM; in the experiment with HLA-B*4403 (human) [9], 529 nM; with HLA-B*1801 (human) [10] it was 841 nM.

Turning to REVRAVTSANI [Her2/neu position 351, 11-mer], the half-inhibitory concentration (IC50) is 1680 nM with HLA-B*4402 (human) [3] and 4490 nM with HLA-B*1801 (human) [4].

As to RERFEMF [RERFEMF (p53, position 335, 7-mer)], the IC50 in the experiment with HLA-B*4002 (human) [2] turned out to be 1910 nM.

SSLPTTMNY [MAGE3.69] registered an IC50 in the experiment with HLA-A*0101 (human) of 676 nM.

SEDCQSLTRTV [Her2/neu position 209, 11-mer]: the IC50 came out at 943 nM with HLA-B*4402 (human) [3], 4320 nM in the experiment with HLA-B*4001 (human) [16] and 311 nM in the experiment with HLA-B*4002 (human) [12].

Consider LEVFEGREDSI [… (MAGE3 position 228, 11-mer)], for which the IC50 amounted to 512 nM with HLA-B*4002 (human) [8] and 4740 nM in the experiment with HLA-B*1801 (human) [10].

Regarding QETELVEPL [Her2/neu position 692, 9-mer], the IC50 with HLA-B*4501 (human) [11] stood at 1230 nM.

For the molecule GESSEDCQSL [Her2/neu position 206, 10-mer], the IC50 with HLA-B*4501 (human) [11] was found to be 2490 nM.

Consider GENVKIPVAI [Her2/neu position 743, 10-mer], for which the IC50 in the experiment with HLA-B*4501 (human) [11] came to 198 nM; in the experiment with HLA-B*1801 (human) [4] it was 563 nM.

Regarding VEYLDDRNT (modifications not checked) [… (p53, position 203, 9-mer)], the results for the IC50 with HLA-B*4402 (human) [1], with HLA-B*4501 (human) [15] and with HLA-B*1801 (human) [17] were 10100 nM, 13500 nM and 1440 nM, respectively.

For APAPAPSI [p53.84.I8], the IC50 in the experiment with HLA-B*5301 (human) is 291 nM; with HLA-B*0702 (human), 275 nM.

Turning to SEDPTVPL [Her2/neu position 1113, 8-mer], the results for the IC50 with HLA-B*4402 (human) [3], with HLA-B*4501 (human) [11] and with HLA-B*4002 (human) [12] were 9450 nM, 308 nM and 161 nM, respectively.

With VEPPLSQET [… (p53, position 10, 9-mer)], the IC50 in the experiment with HLA-B*4402 (human) [1] is 3190 nM; with HLA-B*4001 (human) [13], 17100 nM; with HLA-B*4403 (human) [14], 236 nM.

Consider GEYFTLQI [GEYFRLQI (p53, position 325, 8-mer)], for which the results for the IC50 with HLA-B*4402 (human) [1] and with HLA-B*1801 (human) [17] were 3510 nM and 7770 nM, respectively.

With TEILKGGVL [Her2/neu position 146, 9-mer], the IC50 with HLA-B*4501 (human) [11] worked out at 2480 nM.

Regarding DEAPRMPEA [… (p53, position 61, 9-mer)], the IC50 with HLA-B*4402 (human) [1] came to 6450 nM; in the experiment with HLA-B*4002 (human) [2] it was 4580 nM.

HERCSDSDG [… (p53, position 179, 9-mer)]: the IC50 with HLA-B*4402 (human) [1] was found to be 2030 nM; in the experiment with HLA-B*4501 (human) [15] it was 13400 nM; with HLA-B*1801 (human) [17], 1120 nM.

On to LELKDAQAG [… (p53, position 348, 9-mer)], for which the IC50 with HLA-B*4402 (human) [1] stood at 5130 nM; in the experiment with HLA-B*4501 (human) [15] it was 1990 nM; in the experiment with HLA-B*4001 (human) [13] it was 18700 nM; with HLA-B*4002 (human) [2] it was 3660 nM.

LPQHLFGYSI [CEA.58I10] registered an IC50 with HLA-B*5101 (human) of 262 nM.

For the molecule PTISPSYTYY [CEA.418 (10-mer)], in the experiment with HLA-A*0101 (human), the IC50 amounted to 325 nM.

For the molecule ASSFSTTINY [MAGE2.68], the IC50 with HLA-A*0101 (human) was found to be 1560 nM.

Turning to RELGSGLALI [Her2/neu position 459, 10-mer], the IC50 in the experiment with HLA-B*4501 (human) [11] came to 324 nM; in the experiment with HLA-B*1801 (human) [4], 4810 nM.
